The values that follow come from PubChem BioAssay AID1298 (SRMLSC, 2008).

Molecules are shown by their SMILES. Only a part is listed here, and it is no random draw. Activity calls are given as the source filed them.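 The calls were made as follows: active = RAM network inhibition above 8.4% in each of two replicates, 3 SD over the compound average; inconclusive = above 8.4% inhibition in only one replicate; inactive = 8.4% inhibition or less in each replicate.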

The assay in a line: RAM signaling pathway blockade in yeast – S. cerevisiae, Pdr1DBD-CYC8 efflux-inhibited sensitized strain, primary screen (AID 1298).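 Also: 0% = DMSO untreated cells without growth and 100% = 10 µM 1-NA-PP1 full growth; higher means more yeast growth rescued from 5-FOA killing.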 To be noted: S. cerevisiae cbk1-as DSE1-URA3 strain, 5-FOA growth OD615, 2 d; at 50 µM; active compounds read high.
Take `Fc1ccccc1NC1CCN(Cc2ccccc2)CC1`: the RAM network inhibition was inactive: 2.57%.
